# Like-named read-outs stand apart in the source and are kept apart here.
# Conditions: 500 mg/kg oral gavage, 10 min
substance,measurement,setting,value
18O-2H nicotinamide mononucleotide [18O-D-NMN],uptake into jejunum and ileum,wild-type mice,clearly detected
same,decrease of uptake,ileum of Slc12a8KO mice relative to WT,36%
same,decrease of uptake,jejunum of Slc12a8KO mice relative to WT,46%

# — patent US12337010B2, “Compositions and methods of treatment using nicotinamide mononucleotide” (Washington University, priority 2017, dated 2025)
